Measured values published in patent US20100004257A1, “Identification of Biomarkers Predictive of Dasatinib Effects in Cancer Cells” (University of South Floria, priority 2007, published 2010).

How the values were obtained:
[1] = system: WT EGFR, L858R EGFR, and del L747-E749; A750P EGFR in HEK293 cells; experiment: EGFR phosphorylation in transfected HEK293 cells; type: cell-based; conditions: 3 hours, FIG. 10
[2] = system: lung cancer cells with EGFR mutation that are resistant to EGFR TKI; experiment: Apoptosis and cell cycle in cells with acquired resistance to erlotinib; type: cell-based, Human; conditions: EGFR mutant cells resistant to EGFR TKI
[3] = system: cells with WT EGFR (A549 and H1299) and gefitinib resistant EGFR (H1975) mutation; experiment: Tumor cell invasion, Boyden chambers; type: cell-based, Human; conditions: gefitinib 1 μmol/L, dasatinib 500 nmol/L, FIG. 14
EGFR = experiment: Western analysis of EGFR phosphorylation status in lung cancer cell lines; type: cell-based, Human; conditions: cell lines evaluated; indicated concentrations; 24 hours; FIG. 9
[4] = system: cells with EGFR mutants sensitive to gefitinib (H3255, H1650, HCC827, PC9); experiment: Apoptosis (Apo-BrdU incorporation); type: cell-based, Human; conditions: 500 nmol/L, 36 hours, FIG. 4
[5] = system: cells with EGFR mutation, including H1975; experiment: Cell cycle (propidium iodide staining and flow cytometry); type: cell-based, Human; conditions: 500 nmol/L; 16 to 24 hours; FIG. 5
[6] = system: WT EGFR cells (A549 and H358) and gefitinib resistant H1975 cells; experiment: Apoptosis (Apo-BrdU incorporation); type: cell-based, Human; conditions: 500 nmol/L, 36 hours, FIG. 4
[7] = system: pAkt, pSTAT3, cleaved PARP in HCC827 cells; experiment: Western analysis of pAkt, pSTAT3 and cleaved PARP; type: cell-based, Human; conditions: 24 hours
[8] = system: pSrc in A549 or H358 cells with WT EGFR; experiment: Western analysis of Src phosphorylation status; type: cell-based, Human; conditions: 3 hours, gefitinib 1 μmol/L, dasatinib 500 nmol/L
[9] = system: pTyr416 Src (pSrc) family in HCC827 cells; experiment: Western analysis of Src phosphorylation status; type: cell-based, Human; conditions: 24 hours, dasatinib at 50 nmol/L

| SMILES | EGFR phosphorylation ([1]; 500 nmol/L) | apoptosis [2] | cell cycle [2] | tumor cell invasion [3] | EGFR phosphorylation status (EGFR) | apoptosis [4] | DNA synthesis (cell cycle) [5] | apoptosis [6] | PARP cleavage ([7]; 50 nmol/L) | pAkt ([7]; 50 nmol/L) | pSTAT3 [7] | pSrc [8] | pSrc [9] | EGFR phosphorylation ([1]; 1 μmol/L) | pAkt, PARP cleavage and pSTAT3 results compared with dasatinib [7] |
| --- | --- | --- | --- | --- | --- | --- | --- | --- | --- | --- | --- | --- | --- | --- | --- |
| Cc1nc(Nc2ncc(C(=O)Nc3c(C)cccc3Cl)s2)cc(N2CCN(CCO)CC2)n1 [dasatinib, N-(2-chloro-6-methylphenyl)-2-[[6-[4-[(2-hydroxyethyl)-1-pipperazinyl]-2-methyl-4-pyrimidinyl]amino]-5-thiazolecarboxamide, monohydrate] | inhibited EGFR phosphorylation, although not to the extent seen with gefitinib | do not demonstrate significant amounts of apoptosis | dose-dependent G1 cell cycle arrest | significant inhibitory effect | concentration-dependent inhibition | resulted in apoptosis | inhibits DNA synthesis | minimal apoptosis | induces PARP cleavage | inhibits pAkt | modest changes | completely inhibits pSrc | inhibits the lowest mobility pSrc band |  |  |
| COc1cc2ncnc(Nc3ccc(F)c(Cl)c3)c2cc1OCCCN1CCOCC1 [gefitinib] |  |  |  | no effect compared with control |  |  |  |  |  |  |  | unable to inhibit pSrc | no changes | completely inhibited EGFR phosphorylation | similar |
